Data as given in PubChem BioAssay AID373 (The Scripps Research Institute Molecular Screening Center, 2006).
The entries are a selection whose mix differs from that of the whole data set. Activity calls are given as the source filed them.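 Rule for the calls: active = activation above the screen-wide mean plus 3 SD (cut at about 4.5% in these data, passing the limit was not always enough); inactive = the rest, inconclusive results apart.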

Amino acid sequences for entries named in this document (tags omitted).
UniProt Q99500, whole entry: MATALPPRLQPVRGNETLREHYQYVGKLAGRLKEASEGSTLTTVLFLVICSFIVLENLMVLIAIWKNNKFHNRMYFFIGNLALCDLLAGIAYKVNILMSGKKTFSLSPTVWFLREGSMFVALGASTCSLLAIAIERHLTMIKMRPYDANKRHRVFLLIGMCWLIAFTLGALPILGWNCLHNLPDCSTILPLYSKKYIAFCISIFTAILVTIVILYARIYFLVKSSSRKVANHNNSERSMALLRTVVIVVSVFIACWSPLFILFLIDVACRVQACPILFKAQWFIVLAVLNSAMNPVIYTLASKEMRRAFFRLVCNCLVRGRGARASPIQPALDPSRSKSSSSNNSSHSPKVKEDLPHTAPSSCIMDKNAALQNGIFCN

Molecular target: Sphingosine 1-phosphate receptor 3 (Homo sapiens) (UniProt Q99500)
Assay: activators of S1P3 receptor signaling – cell-based, primary and confirmation, NFAT-BLA reporter, primary screen (AID 373)
Settings: S1P3 NFAT-BLA reporter cells, agonism, FRET ratio; at 4.5 µM; active compounds read high; relative to 1 µM S1P, basal subtracted

Row | Compound | activation
1 | COc1ccc(NC2CCN(CCc3ccccc3)CC2)c(OC)c1 | inactive: -1.1%
2 | O=C(OC1CN2CCC1CC2)C1c2ccccc2Oc2ccccc21 (configuration not stated) | inactive: -0.2%
3 | N#CC1(Nc2ccccc2)CCN(CCc2ccccc2)CC1 | inactive: -0.7%
4 | N/C(=N\O)c1c(N)no[n+]1[O-] | inactive: -0.3%
5 | CCC(CO)(C(=O)OC1CN2CCC1CC2)c1ccccc1 (configuration not stated) | inactive: 0.4%
6 | CCOc1ncccc1C(=O)NCC1(N2CCOCC2)CCCCC1 | inactive: 0.1%
7 | Fc1ccccc1NC1CCN(Cc2ccccc2)CC1 | inactive: -1.1%
